Results taken from publication PMC9307851 (Nature Communications, 2022).

Target: T1, DNMT3B MTase domain ([…]), wild type (human)
T1 construct: DNMT3B (DNA methyltransferase 3B), human, MTase domain […]; Crystallised with SAH; also called DNMT3B methyltransferase domain; WT DNMT3B MTase domain; source: E. coli BL21 DE3 (RIL), purified (Ni-NTA, TEV cleavage, Heparin HP, Superdex 200); not shown: His6, N-terminal, cleaved; MBP, N-terminal, cleaved
Experiment: SEC; DNMT3B protein mixed with separately purified tag-free DNMT3L (178-386), to compare assembly stability
Details: both partners purified

B1: DNMT3L (residues 178-386), made alone from a GST fusion (domain or fragment, human, UniProt Q9UJW3 178-386, looked up)
chain: MFETVPVWRRQPVRVLSLFEDIKKELTSLGFLESGSDPGQLKHVVDVTDTVRKDVEEWGPFDLVYGATPPLGHTCDRPPSWYLFQFHRLLQYARPKPGSPRPFFWMFVDNLVLNKEDLDVASRFLEMEPVTIPDVHGGSLQNAVRVWSNIPAIRSRHWALVSEEELSLLAQNKQSSKLAAKWPTKLVKNCFLPLREYFKYFSTELTSSL
notes: DNMT3L, human, GenBank BC002560, residues 178-386; also called DNMT3L protein; tag-free DNMT3L; source: E. coli BL21 DE3 (RIL), purified (Glutathione Sepharose, 3C PreScission cleavage, GSTrap FF, Superdex 200); not shown: GST, N-terminal, cleaved
binding result: binds
